pIC50: −log10 of the molar value.
Tests used:
His6-TEV-PPARγ-(234-505) = His6-TEV-PPARγ-(234-505) (Homo sapiens, UniProt P37231); assay: TR-FRET Assay to Measure Co-R Peptide Recruitment to PPARγ; settings: read-out: TR-FRET i-Ag, Co-R peptide (SMRT-ID2) recruitment, top final concentration 20 μM
UM-UC-9 engineered cells = assay: Cell proliferation / short-term viability assay, CellTiter-Glo 144 h; settings: read-out: CTGlo 144 h UMUC9.5, G150

Protein sequences, listed by entry. Tags and fused reporters are not part of them. Residues count along the entry.
UniProt P37231, 234-505 limits assumed: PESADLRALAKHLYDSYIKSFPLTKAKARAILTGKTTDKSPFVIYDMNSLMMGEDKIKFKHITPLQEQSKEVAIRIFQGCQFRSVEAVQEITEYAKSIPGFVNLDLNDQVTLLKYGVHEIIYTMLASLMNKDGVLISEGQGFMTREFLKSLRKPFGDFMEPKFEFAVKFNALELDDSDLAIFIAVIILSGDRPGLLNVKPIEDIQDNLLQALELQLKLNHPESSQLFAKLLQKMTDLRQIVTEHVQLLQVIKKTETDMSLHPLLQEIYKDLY

| SMILES | AC50 (His6-TEV-PPARγ-(234-505)) [nM] | pIC50 (UM-UC-9 engineered cells) |
| --- | --- | --- |
| COc1cc(-c2cc(C(=O)N3CC[C@H](C(=O)NC4CCCn5c(C)nnc54)CC34CC4)n[nH]2)c(F)cn1 (single isomer, unassigned) [Example 492-B] | 738 | < 5.00 |
| COc1ncc(F)c(-c2cc(C(=O)N3CCC(C(=O)N[C@H]4CC[C@@](O)(C(F)(F)F)CC4)CC34CC4)n[nH]2)c1C (single isomer, unassigned) [Example 493-A] | 3.2 | 7.77 |
| COc1ncc(F)c(-c2cc(C(=O)N3CCC(C(=O)N[C@H]4CC[C@@](O)(C(F)(F)F)CC4)CC34CC4)n[nH]2)c1C (single isomer, unassigned) [Example 493-B] | 101 | 6.31 |
| COc1cc(-c2cc(C(=O)N3CC[C@H](C(=O)NC4CCC(O)(C(F)(F)F)CC4O)CC34CC4)n[nH]2)c(F)cn1 (single isomer, unassigned) [Example 504-A] | 2130 | < 5.00 |
| COc1cc(-c2cc(C(=O)N3CC[C@H](C(=O)NC4CCC(O)(C(F)(F)F)CC4O)CC34CC4)n[nH]2)c(F)cn1 (single isomer, unassigned) [Example 504-B] | 48.7 | 5.74 |

Second part, led by results:

| AC50 (His6-TEV-PPARγ-(234-505)) [nM] | SMILES | pIC50 (UM-UC-9 engineered cells) |
| --- | --- | --- |
| 15.7 | COc1cc(-c2cc(C(=O)N3CC[C@H](C(=O)NC4CCC(O)(C(F)(F)F)CC4O)CC34CC4)n[nH]2)c(F)cn1 (single isomer, unassigned) [Example 504-C] | 6.59 |
| 2.5 | COc1cc(-c2cc(C(=O)N3CC[C@H](C(=O)NC4CCC(O)(C(F)(F)F)CC4O)CC34CC4)n[nH]2)c(F)cn1 (single isomer, unassigned) [Example 504-D] | 7.13 |
| 687 | COc1cc(-c2cc(C(=O)N3CC[C@H](C(=O)NC4CCC(O)(C(F)(F)F)CC4O)CC34CC4)n[nH]2)c(F)cn1 (single isomer, unassigned) [Example 504-E] | 5.65 |
| 6890 | COc1cc(-c2cc(C(=O)N3CC[C@H](C(=O)NC4CCC(O)(C(F)(F)F)CC4O)CC34CC4)n[nH]2)c(F)cn1 (single isomer, unassigned) [Example 504-F] | < 5.00 |
| 4120 | Cc1cc(-c2cc(C(=O)N3CCC(C(=O)NCc4ncccc4C4CC4)CC34CC4)[nH]n2)c(F)cn1 (single isomer, unassigned) [Example 506-A] | 5.48 |
| 3.6 | Cc1cc(-c2cc(C(=O)N3CCC(C(=O)NCc4ncccc4C4CC4)CC34CC4)[nH]n2)c(F)cn1 (single isomer, unassigned) [Example 506-B] | 8.08 |

— patent publication US12606541B2, “PPARg modulators and methods of use” (Eisai R&D Management Co., Ltd., priority 2020, dated 2026)
